# Source: PubChem BioAssay AID720717 (ICCB-Longwood Screening Facility, Harvard Medical School, 2013)
# The entries are a selection whose mix differs from that of the whole data set. Some results for these compounds are left out of this collection, so the calls shown say nothing about other tests. Active and inactive are the calls of the source.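 Rule for the calls: active = both repeat wells score below -2 in polarization z-score versus plate sample wells, excluding overly bright wells; inactive = the rest.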
# Test system: LANA (ORF73) N-terminal peptide binding to nucleosomes, Human herpesvirus 8
# Test: LANA N-terminal peptide–nucleosome interaction blockers – biochemical, fluorescence polarization, FITC-LANA1-23, chicken nucleosomes, primary screen (AID 720717)
# Details: FITC-LANA1-23 / chicken nucleosome fluorescence polarization; active compounds read low
# Summary of the method: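 System – purified chicken nucleosomes with FITC-labelled LANA N-terminal peptide (1-23) · Amount – 240 nM purified chicken nucleosomes (480 nM peptide binding sites), final · Also added – 50 nM FITC-LANA1-23 probe · Medium – TEN-BT buffer, pH 7.5 · Incubation – compound with peptide–nucleosome mix 10–45 min at room temperature · Detection – fluorescence polarization, ex 480 nm, em 535 nm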
row,Compound,z-score
1,CN1C2CCC1CC(OC(=O)C(O)(c1ccccc1)c1ccccc1)C2 (configuration not stated),inactive: -0.391
2,COc1ccc(OC)c(C=C(C#N)C#N)c1,inactive: -9.89
